According to ChEMBL document CHEMBL4765404, “Identification of benzofused five-membered sultams, potent dual NOD1/NOD2 antagonists in vitro and in vivo” (Eur J Med Chem, 2020):
Active and inactive are the calls of the source. No cut-off for these calls is given here.

Sequences of proteins named here, by UniProt entry; tags and fusion partners are left off.
UniProt Q9HC29, whole entry: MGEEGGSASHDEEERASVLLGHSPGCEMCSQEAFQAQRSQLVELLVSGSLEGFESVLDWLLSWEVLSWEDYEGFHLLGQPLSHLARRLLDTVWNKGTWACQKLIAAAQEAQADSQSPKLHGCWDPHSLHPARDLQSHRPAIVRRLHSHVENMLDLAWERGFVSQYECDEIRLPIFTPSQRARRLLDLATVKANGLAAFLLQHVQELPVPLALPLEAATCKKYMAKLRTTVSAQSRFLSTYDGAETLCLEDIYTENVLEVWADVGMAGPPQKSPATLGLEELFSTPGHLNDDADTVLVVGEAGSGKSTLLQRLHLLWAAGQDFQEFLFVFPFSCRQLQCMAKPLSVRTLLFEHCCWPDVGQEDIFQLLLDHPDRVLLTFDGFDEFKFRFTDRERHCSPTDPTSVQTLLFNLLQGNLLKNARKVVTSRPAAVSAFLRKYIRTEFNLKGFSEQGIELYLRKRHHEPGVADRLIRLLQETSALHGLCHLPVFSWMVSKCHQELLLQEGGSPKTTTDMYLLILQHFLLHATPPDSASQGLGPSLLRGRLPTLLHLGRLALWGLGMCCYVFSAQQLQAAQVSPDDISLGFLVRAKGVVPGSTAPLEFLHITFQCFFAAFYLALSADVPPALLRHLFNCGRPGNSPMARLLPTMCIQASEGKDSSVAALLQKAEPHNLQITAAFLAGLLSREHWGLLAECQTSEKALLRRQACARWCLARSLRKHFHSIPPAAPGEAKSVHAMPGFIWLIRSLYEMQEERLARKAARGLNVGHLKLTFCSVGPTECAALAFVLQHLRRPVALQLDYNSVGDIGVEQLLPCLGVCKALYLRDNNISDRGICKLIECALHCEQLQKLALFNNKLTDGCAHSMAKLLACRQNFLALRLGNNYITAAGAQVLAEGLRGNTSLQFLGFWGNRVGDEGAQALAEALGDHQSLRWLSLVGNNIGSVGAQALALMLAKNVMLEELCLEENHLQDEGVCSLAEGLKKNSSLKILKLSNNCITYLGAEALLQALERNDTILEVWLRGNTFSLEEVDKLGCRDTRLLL

Assays:
Type in all cases: cell-based
Conditions in all cases: filed as antagonist, dose 1-10 µM
[1] = target: T1, Nucleotide-binding oligomerization domain-containing protein 2 (Homo sapiens, UniProt Q9HC29); experiment: Inhibition of human NOD2 in human THP-1 cells assessed as inhibition of MDP stimulated IL-6 m-RNA expression measured after 150 mins by Real time quantitative reverse transcriptase PCR method
[2] = target: T1, Nucleotide-binding oligomerization domain-containing protein 2; experiment: Inhibition of human NOD2 in human THP-1 cells assessed as inhibition of lauroyl-gamma-D-Glu-mDAP stimulated ERK phosphorylation measured after 90 mins by western blot method
[3] = target: T1, Nucleotide-binding oligomerization domain-containing protein 2; experiment: Inhibition of human NOD2 in human THP-1 cells assessed as inhibition of lauroyl-gamma-D-Glu-mDAP stimulated JNK phoshorylation measured after 90 mins by western blot method
[4] = target: T1, Nucleotide-binding oligomerization domain-containing protein 2; experiment: Inhibition of human NOD2 in human THP-1 cells assessed as inhibition of lauroyl-gamma-D-Glu-mDAP stimulated p38 phosphorylation measured after 90 mins by western blot method
[5] = target: T1, Nucleotide-binding oligomerization domain-containing protein 2; experiment: Inhibition of human NOD2 in human THP-1 cells assessed as inhibition of lauroyl-gamma-D-Glu-mDAP stimulated reduction in IkappaBalpha expression measured after 90 mins by western blot method
[6] = target: T1, Nucleotide-binding oligomerization domain-containing protein 2; experiment: Inhibition of human NOD2 in human THP-1 cells assessed as inhibition of lauroyl-gamma-D-Glu-mDAP stimulated RIP2 phoshorylation measured after 90 mins by western blot method

inhibition [1]: Active
inhibition [2]: Active
inhibition [3]: Active
inhibition [4]: Active
inhibition [5]: Active
inhibition [6]: Active
SMILES: CCCCOC(=O)CC1c2cccc(C)c2S(=O)(=O)N1C(=O)c1cccc(C(F)(F)F)c1 (stereo unspecified)
